High-throughput results as filed in PubChem BioAssay.
Glyco luc inh: blocks N-linked glycosylation in D54 reporter cells | D54 ERlucT glycosylation luciferase reporter, 24 h; percent of 100 nM tunicamycin response | reporter increase, % at 12.5 µM | AID 588692 | hit rate 0.23% among 360,000;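 active means mean luciferase reporter signal, scaled so untreated is 0 and the glycosylation-blocking control 100, at or above a set limit in every replicate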;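 further: luciferase carries N-glycosylation sites so blocking glycosylation raises the light; 0% = median of neutral control wells and 100% = median of 100 nM tunicamycin wells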
UUG fidelity: modulators of yeast start codon fidelity, primary screen, whole organism, S. cerevisiae, single point, plate reader | AID 602363, 2012 | actives 0.13% (n = 350,000) | activity score, % at 18.7 µM | S. cerevisiae UUG-firefly luciferase reporter, luminescence/redox ratio;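 active means replicate mean at a twofold rise or more, about +100% in these data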;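 further: firefly luciferase made from a UUG start codon reports start codon fidelity; reporter light over untreated wells divided by growth signal over untreated wells; some hits fall short of that in this replicate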
Cneo AK release: Cryptococcus neoformans lysis via adenylate kinase release | C. neoformans lysis, adenylate kinase release luminescence, 4 h; normalised: neutral wells 0, clomiphene wells 100 | lysis activity, % at 15 µM | hit rate 0.2% among 360,000;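 active means mean lysis activity across replicates of at least 80%, whatever share of replicates individually reach that level; inactive means mean lysis activity below 80%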
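Schedule: static 4 h at 37 °C with compound, 1 h detection; system: C. neoformans cells; benchmarks: Clomiphene as positive control; buffer or medium: fresh YPD medium; measure: luminescence rise reflecting yeast cell lysis; measured by: luminescent adenylate kinase detection reagent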
miR122 inh: blocks miR-122 activity in Huh7 sensor cells. hit rate 0.3% among 340,000. Huh7 miR-122 Renilla luciferase sensor, 48 h; neutral wells = 0, positive control = 100. activation (reporter increase), % at 12.5 µM;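 active means mean replicate activation score at least 90 and every replicate individually at or above 90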;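 further: higher luciferase means less miR-122 activity so hits act as miR-122 inhibitors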
Statin myotox sup: protects C2C12 myotubes from simvastatin toxicity; ATP luminescence, 48 h; scaled: DMSO 0, geranylgeraniol control 100; rescue of ATP level, % at 7.49 µM; hit rate 0.78% among 330,000;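 active means mean ATP rescue above about 67%, or every replicate alone reaching that limit, limit read from the data, passing the limit was not always enough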;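 further: myotubes were challenged with 10 µM simvastatin during compound exposure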
* marks the source's active call; other numbers are inactive results; x = no result given; [ ] = remark or other dose. Sampled rows, rich in hits. Any-hit rate of the full collection: about 1.2%.

SMILES | Glyco luc inh | UUG fidelity | Cneo AK release | miR122 inh | Statin myotox sup
CC(=O)N(C)C[C@@H]1Oc2ncc(C#Cc3ccncc3)cc2C(=O)N([C@H](C)CO)C[C@H]1C | x | 5 | -1 | -7[16.7 µM] | 14
C[C@H](CO)N1C[C@H](C)[C@@H](CN(C)C(=O)Nc2ccccc2)OCCCC[C@H](C)Oc2ccc(NC(=O)Nc3cccc4ccccc34)cc2C1=O | x | -6 | -2 | -7[16.7 µM] | x
COc1cc2c(cc1OC)C(c1ccccc1)N(C(=O)c1cccc(S(C)(=O)=O)c1)CC2 (stereo not drawn) | 67* | x | x | 0 | -2
COc1ccc(C2c3cc(OC)c(OC)cc3CCN2C(=O)c2ccccc2)cc1OC (stereo not drawn) | 0 | -1 | -2 | 6 | 14
CC(Sc1nnc(NC2CCCCC2)s1)C(=O)Nc1ccc2c(c1)C(=O)c1ccccc1C2=O (stereo not drawn) | -1 | -31 | -3 | -6 | x
C[C@@]12C(=O)Nc3cc(Cl)ccc3C(=O)N1[C@H]1c3ccccc3OC[C@@H]1[C@@H]2c1ccccc1 | 31* | -8 | 1 | -10 | 7
C[C@@]12C(=O)Nc3ccc(F)cc3C(=O)N1[C@H]1c3cc(Cl)ccc3OC[C@@H]1[C@@H]2c1ccccc1 | 28* | -8 | -6 | -3 | -19
C[C@@]12C(=O)Nc3ccc(Cl)cc3C(=O)N1[C@H]1c3ccccc3OC[C@@H]1[C@@H]2c1ccccc1 | 28* | -10 | -4 | -3 | 15
CC(C)C#Cc1ccc([C@@H]2[C@H](CO)N3CCCCN(S(=O)(=O)Cc4ccccc4)C[C@@H]23)cc1 | x | -9 | 2 | 2[16.7 µM] | x
CCOC(=O)C1=C(C(C)=O)C(c2cccnc2)C(C#N)=C(N)O1 (stereo not drawn) | 1 | x | x | -8 | 118*
CCOC(=O)C1=C(CSc2nc(-c3ccncc3)ccc2C#N)OC(N)=C(C#N)C1c1cccnc1 (stereo not drawn) | 3 | -8 | -1 | 3 | -16
COCC(=O)N1CC[C@@H]2[C@@H](CO)Nc3ccc(C#Cc4ccccc4)cc3[C@@H]21 | x | 3 | 4 | 5[16.7 µM] | 9
CCNc1nc(N)nc(Oc2ccc(OCc3ccccc3)nn2)n1 | 2 | -9 | -3 | -7 | x
CCNc1nc(N)nc(Oc2ccc(OCCOc3ccccc3)nn2)n1 | 7 | -4 | 2 | 151* | x
Cc1ccc(S(=O)(=O)N[C@@H]2CCCN(Cc3cccc(OCCO)c3)C2)cc1 | x | 15 | 85* | x | x
CCCNC(=O)c1ccc(CNc2c(N3CCC(C(=O)OCC)CC3)c(=O)c2=O)cc1 | 1 | -14 | 1 | 0 | 133*
CCOC(=O)C1CCN(c2c(NCc3ccc(C(=O)NCCC(C)C)cc3)c(=O)c2=O)CC1 | 1 | 7 | 0 | -1 | 6
CCOCCCNC(=O)c1cc2c(=O)n(CC)c3ccccc3c2s1 | 41* | -13 | 1 | -1 | -61
CC[n+]1c(/C=C/N(C)c2ccccc2)oc2ccccc21 | 3 | -7 | -3 | -2 | x
CC[n+]1c(/C=C/N(C)c2ccccc2)oc2ccc(F)cc21 | 20 | -10 | -1 | 335* | x
CCOCCCNc1nc2c(-c3ccccc3)nnn2c2ccccc12 | 0 | -42 | 2 | 0 | 88*
CSCc1c(C(=O)NC2CCCc3ccccc32)oc2ccccc12 (stereo not drawn) | -4 | -15 | 0 | -4 | 102*
CCN(CC)S(=O)(=O)c1ccc2oc(C(=O)NC3CCCc4ccccc43)c(C)c2c1 (stereo not drawn) | -6 | -17 | 2 | x | -4
C[C@@H]1CN([C@H](C)CO)S(=O)(=O)c2ccc(-c3ccc(F)cc3)cc2O[C@@H]1CN(C)C(=O)C1CC1 | x | 5 | x | 9[16.7 µM] | 5
COC(=O)Cc1csc(Nc2ccccc2)n1 | 0 | x | x | x | x
Cc1cccc(Nc2nc(CC(=O)O)cs2)c1 | -1 | -17 | 2 | 1 | 128*
C[C@@H]1CN([C@@H](C)CO)C(=O)c2cc(NC(=O)Cn3cnnn3)ccc2O[C@@H]1CN(C)Cc1ccccc1 | x | -4 | -5 | 4[16.7 µM] | 7
CCCn1c(NC(=O)c2ccco2)nc2ccccc21 | 0 | 13 | 6 | 41 | 102*
N#Cc1cccc(-n2nnnc2-c2ccc3c(c2)OCO3)c1 | -2 | -6 | -1 | -5 | x
N#Cc1ccc(-c2nnnn2-c2ccc3c(c2)OCO3)cc1 | 1 | -15 | 6 | -8 | 107*
Cn1cnnc1SCC(=O)N1CCC(Cc2ccccc2)CC1 | -2 | -9 | 0 | 0 | 99*

Retrieved one by one from the list above (2):
SMILES | Glyco luc inh | UUG fidelity | Cneo AK release | miR122 inh | Statin myotox sup
COc1ccc(C2c3cc(OC)c(OC)cc3CCN2C(=O)c2ccccc2)cc1OC (stereo not drawn) | 0 | -1 | -2 | 6 | 14
C[C@@]12C(=O)Nc3cc(Cl)ccc3C(=O)N1[C@H]1c3ccccc3OC[C@@H]1[C@@H]2c1ccccc1 | 31* | -8 | 1 | -10 | 7

Results in miR122 inh, Glyco luc inh and Cneo AK release, for some of the entries so far:
SMILES | miR122 inh | Glyco luc inh | Cneo AK release
Cc1ccc(S(=O)(=O)N[C@@H]2CCCN(Cc3cccc(OCCO)c3)C2)cc1 | x | x | 85*
CCCNC(=O)c1ccc(CNc2c(N3CCC(C(=O)OCC)CC3)c(=O)c2=O)cc1 | 0 | 1 | 1
CCOC(=O)C1CCN(c2c(NCc3ccc(C(=O)NCCC(C)C)cc3)c(=O)c2=O)CC1 | -1 | 1 | 0
